Reference: patent US9802904B2, “Inhibitors of the USP1/UAF1 deubiquitinase complex and uses thereof” (The United States of America, as represented by the …, priority 2012, dated 2017)

Sequences of proteins named here, by UniProt entry; tags and fusion partners are left off.
UniProt O94782, whole entry: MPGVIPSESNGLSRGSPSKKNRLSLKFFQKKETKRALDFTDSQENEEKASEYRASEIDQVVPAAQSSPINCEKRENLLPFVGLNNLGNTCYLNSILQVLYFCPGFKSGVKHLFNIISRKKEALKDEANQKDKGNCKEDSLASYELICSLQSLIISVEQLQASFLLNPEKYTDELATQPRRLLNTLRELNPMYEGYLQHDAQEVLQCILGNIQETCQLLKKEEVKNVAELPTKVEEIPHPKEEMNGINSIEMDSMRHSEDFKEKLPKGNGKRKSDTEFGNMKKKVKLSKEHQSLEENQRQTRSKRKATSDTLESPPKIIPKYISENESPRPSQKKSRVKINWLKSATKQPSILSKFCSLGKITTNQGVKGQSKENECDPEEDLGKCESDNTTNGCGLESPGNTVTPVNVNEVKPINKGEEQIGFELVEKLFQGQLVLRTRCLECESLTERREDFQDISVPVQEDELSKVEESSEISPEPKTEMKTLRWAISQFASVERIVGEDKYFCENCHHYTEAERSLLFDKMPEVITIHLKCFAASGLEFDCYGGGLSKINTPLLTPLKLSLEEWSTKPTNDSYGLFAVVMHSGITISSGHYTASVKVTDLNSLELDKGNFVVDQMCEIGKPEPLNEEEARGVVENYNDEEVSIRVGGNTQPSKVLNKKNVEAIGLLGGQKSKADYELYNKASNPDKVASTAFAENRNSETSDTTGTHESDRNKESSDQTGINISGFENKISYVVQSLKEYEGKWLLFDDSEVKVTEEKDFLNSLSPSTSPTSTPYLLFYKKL
UniProt Q8TAF3, whole entry partner: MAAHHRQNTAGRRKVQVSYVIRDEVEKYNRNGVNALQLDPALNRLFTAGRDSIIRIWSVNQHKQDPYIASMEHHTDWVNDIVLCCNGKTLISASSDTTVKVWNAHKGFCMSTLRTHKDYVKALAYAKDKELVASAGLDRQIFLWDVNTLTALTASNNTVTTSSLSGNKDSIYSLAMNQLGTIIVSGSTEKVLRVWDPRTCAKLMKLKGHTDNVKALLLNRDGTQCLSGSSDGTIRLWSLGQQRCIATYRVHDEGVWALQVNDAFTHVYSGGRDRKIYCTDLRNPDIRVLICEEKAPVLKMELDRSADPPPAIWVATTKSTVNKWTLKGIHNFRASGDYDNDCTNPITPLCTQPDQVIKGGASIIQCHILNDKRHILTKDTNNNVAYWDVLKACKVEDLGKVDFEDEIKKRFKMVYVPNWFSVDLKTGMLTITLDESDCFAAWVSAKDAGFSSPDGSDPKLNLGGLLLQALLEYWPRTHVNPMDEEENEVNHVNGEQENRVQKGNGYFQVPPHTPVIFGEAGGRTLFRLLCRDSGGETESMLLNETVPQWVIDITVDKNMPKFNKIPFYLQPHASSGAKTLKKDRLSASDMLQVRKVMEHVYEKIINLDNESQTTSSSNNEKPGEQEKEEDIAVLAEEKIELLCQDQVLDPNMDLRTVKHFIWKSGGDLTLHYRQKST

target: USP1/UAF1 (Homo sapiens (Human), UniProt O94782); test: qHTS assay for USP1/UAF1 activity (fluorometric, ubiquitin-rhodamine110); assay type: biochemical; conditions: USP1/UAF1 inhibition, Table 2

| Structure (SMILES) | IC50 |
| --- | --- |
| COc1ccccc1-c1nc(NCc2ccc(-c3cccnc3)cc2)c2ccccc2n1 | 0.68 µM |
| CC(C)c1ccccc1-c1nc(NCc2ccc(-c3cccnc3)cc2)c2ccccc2n1 | 0.15 µM |
| c1cncc(-c2ccc(CNc3nc(N4CCCC4)nc4ccccc34)cc2)c1 | 27 µM |
| c1cncc(-c2ccc(CNc3nc(C4CCCC4)nc4ccccc34)cc2)c1 | 17 µM |
| Fc1ccccc1-c1nc(NCc2ccc(-c3cccnc3)cc2)c2ccccc2n1 | 3.4 µM |
| Cc1ccccc1-c1nc(NCc2ccc(-c3cccnc3)cc2)c2ccccc2n1 | 0.48 µM |
| O=[N+]([O-])c1ccccc1-c1nc(NCc2ccc(-c3cccnc3)cc2)c2ccccc2n1 | 4.3 µM |
| CN(CC(F)(F)F)c1nc(NCc2ccc(-c3cccnc3)cc2)c2ccccc2n1 | 7.6 µM |
| Brc1ccccc1-c1nc(NCc2ccc(-c3cccnc3)cc2)c2ccccc2n1 | 0.96 µM |
| c1cncc(-c2ccc(CNc3nc(-n4ccnc4)nc4ccccc34)cc2)c1 | 27 µM |
| FC(F)(F)c1cccc(-c2nc(NCc3ccc(-c4cccnc4)cc3)c3ccccc3n2)c1 | 27 µM |
| Clc1ccccc1-c1nc(NCc2ccc(-c3cccnc3)cc2)c2ccccc2n1 | 0.86 µM |
| CCc1ccccc1-c1nc(NCc2ccc(-c3cccnc3)cc2)c2ccccc2n1 | 0.61 µM |

same assay, conditions: USP1/UAF1 inhibition, Table 3

| IC50 | Structure (SMILES) |
| --- | --- |
| 0.068 µM | Cc1cnc(-c2ccccc2C(C)C)nc1NCc1ccc(-c2cccnc2)cc1 [Compound 86] |
